Laboratory results from patent publication US20100316573A1, “Organic Compounds” (priority 2006, published 2010).

Experiments:
[1] = test system: TNFα mRNA in SKOV-3 cells; assay: TNFα mRNA induction in SKOV-3 cells (FIG. 2), fold increase relative to untreated cells
[2] = test system: TNF mRNA in tumor cell lines; assay: TNF mRNA levels in a panel of tumor cell lines treated with Compound II (FIG. 1); format: cell-based; conditions: sensitive cell lines (72 hour IC50<1 uM), 18 hrs, normalized to B-Actin mRNA
Source text: Biosystems TaqMan Universal PCR Master Mix.
Implicit in these findings is that TNF levels may be used to predict sensitivity to a Smac Mimetic compound and that assessment of rising TNF levels may have potential as a strategy for monitoring a therapeutic response.

N-D-Cyclohexyl-2-(2-{2-[(4-fluorophenyl)-methyl-amino]-pyridin-4-yl}pyrrolidin-1-yl)-2-oxo-ethyl]-2-methylamino-propinamide [Compound II]
induction of TNFα mRNA (in words) [1]: induce TNFα mRNA in SKOV-3 cells in a dose dependent manner | fold increase of TNF relative to untreated cells ([1]; 100 nM compound + PI (MG132)): 15-20 fold increase | fold increase of TNF relative to untreated cells ([1]; 100 nM compound + ZVAD): 95-100 fold increase | fold increase of TNF relative to untreated cells ([1]; 100 nM compound alone): ~50 fold increase | fold increase of TNF relative to untreated cells ([1]; 1000 nM compound + PI (MG132)): 25-30 fold increase | fold increase of TNF relative to untreated cells ([1]; 1000 nM compound + ZVAD): 125-130 fold increase | fold increase of TNF relative to untreated cells ([1]; 1000 nM compound + sTNFR (soluble TNFα receptor)): 0-5 fold increase | fold increase of TNF relative to untreated cells ([1]; 1000 nM compound alone): 120-130 fold increase | fold increase of TNF relative to untreated cells ([1]; 100 nm compound + sTNFR (soluble TNFα receptor)): 0-1 fold increase | response of TNF mRNA expression to treatment (in words) [2]: increasing expression of TNF mRNA
